Tested on: UCB T-cells
Assay: Cytoplasmic IFN-γ and NFAT1 expression in UCB T-cells during mitogen stimulation
Format: cell-based, human
Details: exogenous cytokine added during mitogen stimulation; IFN-γ 100 or 1,000 U/ml; 24 h
Protocol: To further test expression and regulation, exogenous IFN-γ was added (100 or 1,000 U/ml) during mitogen stimulation and cytoplasmic IFN-γ expression in UCB T-cells was measured. […] Importantly however, the rescue-effect on IFN-γ expression in UCB T cells depended on up-regulation of NFAT1, as shown by dual staining for NFAT1 and IFN-γ (FIG. 21A-C). IFN-γ expression was only observed in NFAT1 co-expressing T-cells.

IL-2: cytokine added during mitogen stimulation
percentages of IFN-γ-expressing UCB T-cells: did not result in up-regulation

Reference: patent publication US9233127B2, “Compositions and methods for CXCR4 signaling and umbilical cord blood stem cell engraftment” (University of Virginia Patent Foundation, priority 2012, dated 2016)
